These results are taken from paper PMC11048482 (Biomolecules, 2024).

The data set has as its system N=C(N)NCCC[C@H](N)C(=O)O. Kind of data set: purified protein. As to conditions: pH 7.5, 1 h endpoint, PLP cofactor.

The Km is the concentration of substrate that gives half-maximal velocity. As to “SP_0166 (Streptococcus pneumoniae TIGR4)”, the Km is 11.3 mM and the kcat is reported as 715,053 min^−1.
